# Only some compounds are listed: those with a hit (about 1.6% of all), similar ones and a draw of the others.
# CAL PDZ FP-1 – inhibitors of human CAL PDZ peptide binding | Q9HD26 | purified CAL PDZ, TMR-peptide fluorescence polarization, 1 h | inhibition, % at 20 µM | actives 0.02% (n = 330,000);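 active means highest replicate inhibition of at least 40%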;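 further: plate controls were DMSO neutral control wells for no effect and unlabeled competitor peptide control wells for full effect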
#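 Assay system – tagged CAL PDZ protein CerCALP, purified · Timing – 1 h at RT · Compound – single point, 20 µM · Measured by – fluorescence polarization from S- and P-plane intensities, G-factor corrected · Evaluation – inhibition from polarization loss · Probe or stimulus – TMR reporter peptide T*-PRC34 · Buffer or medium – pH 7.4 phosphate-saline buffer, reducing agent, detergent, IgG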
# UUG fidelity – alters start codon recognition fidelity in yeast; S. cerevisiae UUG-firefly luciferase reporter, luminescence/redox ratio; activity score, % at 18.7 µM; actives 0.13% (n = 350,000); AID 602363;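 active = replicate mean at a twofold rise or more, about +100% in these data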;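 also: firefly luciferase made from a UUG start codon reports start codon fidelity; reporter light over untreated wells divided by growth signal over untreated wells; some hits fall short of that in this replicate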
# ARNT-TACC3 inh – ARNT/TACC3 interaction disruption. inhibition, % at 9.99 µM. AID 623870. AlphaScreen His-ARNT PAS-B/GST-TACC3 binding, luminescence; TACC3 fragment carries E629A point mutation. actives 0.66% (n = 390,000);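 active means mean inhibition of replicates at least 50% and at least half of replicates each reaching 50%; inconclusive means half or more replicates reach 50% but mean below 50%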;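 further: 0% = complete ARNT plus TACC3 wells and 100% = ARNT alone without TACC3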
# PglD DTNB – PglD (C. jejuni) enzyme inhibition; purified PglD enzyme, DTNB colorimetric CoA detection; inhibition, % at 12.5 µM; actives 0.098% (n = 360,000); in the data active means inhibition above about 16%, passing the limit was not always enough; inconclusive means no clear call, values can overlap the other calls
# CAL PDZ FP-2 – CAL PDZ (human) peptide binding inhibition; Q9HD26; purified CAL PDZ, TMR-peptide fluorescence polarization, 1 h; inhibition, % at 24.9 µM; actives 0.92% (n = 300,000); AID 602252;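 active means mean inhibition of at least 30% with at least half of replicates also reaching 30%; inconclusive means no clear call, values can overlap the other calls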;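 further: 0% = DMSO neutral control and 100% = excess unlabeled competitor peptide PRC23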
# Vif inh – blocks HIV Vif function; actives 0.35% (n = 340,000); inhibition, % at 7.49 µM; AID 602346; HEK293T cells, Vif self-association by quenched fluorescence, imaging, 24 h; in the data active means inhibition above about 50%, passing the limit was not always enough; inconclusive means no clear call, values can overlap the other calls; inactive means below about 31%
# * = called active by the depositor; ? = inconclusive; . = no result.
SMILES	CAL PDZ FP-2	ARNT-TACC3 inh	UUG fidelity	PglD DTNB	Vif inh	CAL PDZ FP-1
Cc1[nH]n(-c2ccccc2)c(=O)c1/C=N/NC(=O)C(C)C	.	70*	-33	4	2	0
Cc1[nH]n(-c2ccccc2)c(=O)c1/C=N/NC(=O)c1cccc([N+](=O)[O-])c1	-4	31*	-20	6	3	0
O=C(c1ccccn1)N1C[C@H]2[C@@H](c3ccccc31)[C@@H](CO)N2C(=O)C1CC1	.	23	-8	3	.	.
C[C@H](O)C#Cc1cnc2c(c1)C(=O)N([C@@H](C)CO)C[C@@H](C)[C@H](CN(C)C(=O)c1ccccc1F)O2	.	-2	7	2	.	.
O=C(C[C@@H]1CC[C@H]2[C@@H](COC[C@H](O)CN2C(=O)Nc2cccc(Cl)c2)O1)NCCCN1CCOCC1	.	7	-2	-4	.	.
Fc1ccc(-n2c(-c3ccc4ccccc4n3)n[nH]c2=S)cc1Cl	71*	-2	-9	-2	3	.
CCCn1c(=C(C#N)C#N)s/c(=C2\C=Cc3ccccc3N2CC)c1=O	55*	-3	-10	7	-3	0
CCN1/C(=C2\OC(=S)N(C)C2=O)C=Cc2ccccc21	.	-9	-18	4	?	1
Cc1noc(C)c1S(=O)(=O)N(C)C[C@H]1Oc2ccc(NC(=O)Nc3ccc(C(F)(F)F)cc3)cc2CC(=O)N([C@H](C)CO)C[C@H]1C	.	5	-8	-1	.	.
O=C1C(Cl)=C(Nc2ccc3cn[nH]c3c2)C(=O)c2ccccc21	4	-5	-17	3	-21	.
CN(C)c1ccc(NC2=C(Cl)C(=O)c3ccccc3C2=O)cc1	2	53*	-20	-1	2	0
CS(=O)(=O)Nc1ccc2c(c1)[C@H]1C[C@H](CC(=O)NCC3CC3)O[C@H](CO)[C@H]1O2	.	-3	.	3	.	.

# (continued)
SMILES	CAL PDZ FP-2	ARNT-TACC3 inh	UUG fidelity	PglD DTNB	Vif inh	CAL PDZ FP-1
CCN(CC)C(=O)Cn1cc(C(=O)C(=O)N2CCCc3ccccc32)c2ccccc21	2	0	10	2	7	0
CCN(CC)C(=O)Cn1cc(C(=O)C(=O)N2CCc3ccccc32)c2ccccc21	46*	-6	.	.	-6	-1
Cc1cc(C(=O)N/N=C/c2c(C)nn(-c3ccccc3)c2Cl)n[nH]1	.	.	-23	-7	71*	.
CC(C)=CC(=O)Nc1cccc(S(=O)(=O)NC2=NCCCCC2)c1	47*	-1	-2	3	-3	1
O=C(CCl)Nc1cccc(S(=O)(=O)NC2=NCCCCC2)c1	.	9	0	-3	1	0
CC1CCC(NC(=O)c2ccc3c(c2)S(=O)(=O)c2ccccc2C3=O)CC1 (stereo not drawn)	4	5	-9	-2	11	43*
CC1CCC(NC(=O)CN2C(=O)c3ccccc3S2(=O)=O)CC1 (stereo not drawn)	-3	-1	-15	-1	59*	0
CCC(=O)N1C[C@H](C)[C@@H](OC)CN(C)C(=O)c2cc(NC(=O)c3ccc(F)cc3)ccc2OC[C@H]1C	.	-11	1	-2	.	.
CCOC(=O)c1nnn(-c2nonc2N)c1CN1CCCCCC1	.	3	-16	-3	-4	-1
Cc1c(C(=O)N2CCCCCC2)nnn1-c1nonc1N	49*	-3	-7	0	-10	0
COc1ccc(CNS(=O)(=O)c2c(C(=O)N3CCCCC3)c(C)n(C)c2C)cc1	4	-5	2	1	2	-2
Cc1c(C(=O)N2CCCCC2)c(S(=O)(=O)NCc2ccccc2Cl)c(C)n1C	38*	-1	-2	-1	-3	-2

# Whole records, looked up by structure.
# CC(C)=CC(=O)Nc1cccc(S(=O)(=O)NC2=NCCCCC2)c1 reads CAL PDZ FP-2: 47*; ARNT-TACC3 inh: -1; UUG fidelity: -2; PglD DTNB: 3; Vif inh: -3; CAL PDZ FP-1: 1
# CCCn1c(=C(C#N)C#N)s/c(=C2\C=Cc3ccccc3N2CC)c1=O reads CAL PDZ FP-2: 55*; ARNT-TACC3 inh: -3; UUG fidelity: -10; PglD DTNB: 7; Vif inh: -3; CAL PDZ FP-1: 0
# CCN1/C(=C2\OC(=S)N(C)C2=O)C=Cc2ccccc21 reads CAL PDZ FP-2: .; ARNT-TACC3 inh: -9; UUG fidelity: -18; PglD DTNB: 4; Vif inh: ?; CAL PDZ FP-1: 1

# (more compounds)
SMILES	CAL PDZ FP-2	ARNT-TACC3 inh	UUG fidelity	PglD DTNB	Vif inh	CAL PDZ FP-1
CC(=O)c1ccc(N2CCN(S(=O)(=O)c3c(C(=O)N4CCCC4)c(C)n(C)c3C)CC2)cc1	80*	-1	-12	-6	-5	-1
Cc1c(C(=O)N2CCCCC2)c(S(=O)(=O)NCc2ccc(Cl)cc2)c(C)n1C	77*	0	5	1	20	0
CC(=O)c1ccc(N2CCN(S(=O)(=O)c3c(C(=O)N4CCCCC4)c(C)n(C)c3C)CC2)cc1	9	4	-12	3	4	-2
Cc1ccc(CNS(=O)(=O)c2c(C(=O)N3CCCCCC3)c(C)n(C)c2C)cc1	76*	2	24	-2	6	-1
O=C(C[C@@H]1CC[C@H]2[C@@H](COC[C@H](O)CN2Cc2cc(F)ccc2F)O1)NCc1ccc(Cl)cc1	.	0	.	2	.	.
CCCCCCOC(=O)c1ccc(OC(=O)c2cccnc2)cc1	-4	-1	-2	1	.	0
CCCCOC(=O)c1ccc(OC(=O)c2cccnc2)cc1	33*	-8	-30	-1	11	0
Clc1ccc(-c2ccc(CNCc3ccccn3)o2)cc1	2	73*	-23	6	6	-2
O=C(CCCN1C(=O)c2ccccc2C1=O)Nc1nncs1	-2	-3	6	1	60*	0
O=C(CCCN1C(=O)c2cccnc2C1=O)Nc1ccc(Br)cc1	0	5	-6	-7	59*	0
O=C(CCCN1C(=O)c2ccccc2C1=O)Nc1ccc(Br)cn1	1	-2	-15	2	1	-3
C[C@@H]1CN([C@H](C)CO)S(=O)(=O)c2ccc(Br)cc2O[C@H]1CN(C)C(=O)c1cnccn1	.	6	-5	4	.	.

# Additional records
SMILES	CAL PDZ FP-2	ARNT-TACC3 inh	UUG fidelity	PglD DTNB	Vif inh	CAL PDZ FP-1
Cc1ncoc1C(=O)N1CCCC(C(=O)c2ccc(Oc3ccccc3)cc2)C1 (stereo not drawn)	-3	-1	.	.	61*	-2
Cc1ncoc1C(=O)N1CCCC(C(=O)c2cccc(OC(C)C)c2)C1 (stereo not drawn)	-5	.	.	.	-2	0
COc1cc(N2CCCC2)c(OC)cc1/C=C(/C#N)c1ccc(F)cc1	-3	-1	-8	-15	63*	1
COc1ccc(O)c(C(=O)c2coc(=N)c(C(=O)Nc3ccc(SC(F)F)cc3)c2)c1	40*	-7	-22	4	-12	-1
C[C@@H]1CN([C@H](C)CO)S(=O)(=O)c2ccc(-c3ccc(C#N)cc3)cc2O[C@@H]1CN(C)Cc1ccccn1	.	2	-5	-3	.	.
Cn1c(=O)c2c(nc(NCCNC(=O)c3ccco3)n2Cc2ccc(Cl)cc2Cl)n(C)c1=O	-1	-8	-25	6	.	-1
Cn1c(=O)c2c(nc(NCC3CCCC(CN)C3)n2Cc2ccc(Cl)cc2Cl)n(C)c1=O (stereo not drawn)	0	1	5	-4	51*	0
O=C(O)c1ccccc1OCCOCCOc1ccccc1C(=O)O	-2	-2	.	.	10	-2
O=C(O)c1ccccc1OCCOc1ccccc1C(=O)O	-3	50*	-16	-2	20	-1
O=C(COC(=O)c1cc(S(=O)(=O)N2CCOCC2)ccc1O)NCc1ccc2c(c1)OCO2	0	-19	-9	4	0	-2
